Measured values taken from USRE36397E, “Inhibitors of poly(ADP-ribose) synthetase and use thereof to treat NMDA neurotoxicity” (The John Hopkins University, priority 1998, dated 1999).

Sequences of proteins named here, by UniProt entry; tags and fusion partners are left off.
UniProt P27008, whole entry: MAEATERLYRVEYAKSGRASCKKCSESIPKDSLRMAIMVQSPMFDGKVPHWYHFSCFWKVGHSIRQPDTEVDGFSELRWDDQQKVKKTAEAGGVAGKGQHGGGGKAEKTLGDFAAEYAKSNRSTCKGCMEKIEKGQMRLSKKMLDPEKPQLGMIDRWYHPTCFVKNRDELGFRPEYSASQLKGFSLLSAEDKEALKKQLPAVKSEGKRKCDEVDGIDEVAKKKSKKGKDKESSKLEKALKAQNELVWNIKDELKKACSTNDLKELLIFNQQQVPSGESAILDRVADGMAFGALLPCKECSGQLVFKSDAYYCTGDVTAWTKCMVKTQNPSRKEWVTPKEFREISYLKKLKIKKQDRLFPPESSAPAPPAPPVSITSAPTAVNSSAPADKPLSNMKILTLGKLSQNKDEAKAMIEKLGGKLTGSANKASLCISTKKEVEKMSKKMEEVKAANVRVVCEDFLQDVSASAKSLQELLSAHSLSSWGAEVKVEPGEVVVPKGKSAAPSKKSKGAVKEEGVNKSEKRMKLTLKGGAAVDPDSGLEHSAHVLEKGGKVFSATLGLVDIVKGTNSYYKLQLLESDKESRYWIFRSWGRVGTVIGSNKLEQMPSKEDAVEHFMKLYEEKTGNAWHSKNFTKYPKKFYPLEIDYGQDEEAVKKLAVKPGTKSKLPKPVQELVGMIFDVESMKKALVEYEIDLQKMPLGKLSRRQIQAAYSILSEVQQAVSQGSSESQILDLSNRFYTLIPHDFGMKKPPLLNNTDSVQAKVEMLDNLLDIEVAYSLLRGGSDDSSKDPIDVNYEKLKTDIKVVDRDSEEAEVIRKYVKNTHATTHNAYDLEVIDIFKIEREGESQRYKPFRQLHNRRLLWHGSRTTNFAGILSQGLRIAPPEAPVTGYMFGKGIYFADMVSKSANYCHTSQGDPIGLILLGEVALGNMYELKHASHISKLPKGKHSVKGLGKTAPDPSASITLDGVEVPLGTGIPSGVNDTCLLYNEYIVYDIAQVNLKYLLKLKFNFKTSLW

Key:
[1] = molecular target: PARS (poly(ADP-ribose) synthetase) (Rattus norvegicus, UniProt P27008); experiment: PARS activity in rat brain nuclear extracts; format: biochemical; details: benzamide 100 μM
From the text: Inhibitors of poly(ADP-ribose) synthetase are compounds which compete for the substrate binding site of poly(ADP-ribose) synthetase or other sites on the enzyme, and include both reversible and irreversible inhibitors. The present invention contemplates the use of any physiologically acceptable inhibitor which inhibits poly(ADP-ribose) synthetase activity. The effectiveness of a compound, and its relative potency as a poly(ADP-ribose) synthetase inhibitor, can be tested and routinely determined by measuring inhibition of poly(ADP-ribose) synthetase activity. Poly(ADP-ribose) synthetase activity can be assayed according to the method of Schranfstatter, et al., J. Clin. Inves. 77, 1312 (1986).
Whole brains from 1-day old rats were homogenized in 20% (w/v) buffer A [50 mM Tris-HCl (pH 7.4), 1 mM EDTA, 1 mM DTT, 50 mM NaCl, 0.25M sucrose, 0.2 mM phenylmethylsulfonyl fluoride, 1 μg/ml each of chymostatin, leupeptin, pepstatin and trypsin inhibitor]. The homogenate was centrifuged at 1000 g for 15 min. The pellet was washed with buffer A and centrifuged again. The washed pellet, termed nuclear fraction, was resuspended in buffer A. PARS activity was assayed according to I. U. Schranfstatter, et al., J. Clin. Inves. 77, 1312 (1986). Each 50 μl assay mixture contained 10 μg of the nuclear protein fraction and [adenylate-^32 P]

[2] = system: brain NOS; experiment: Nitrite formation in human kidney 293 cells stably transfected with brain NOS cDNA; format: cell-based; details: for effect on NOS / stimulated nitrite levels: 100 μM
Experimental: To ascertain whether NO itself elicits neurotoxicity by activation of PARS, we administered the NO releasers SNP and S-nitroso-N-acetylpenicillamine (SNAP). Benzamide (100 μM) reduced SNP and SNAP neurotoxicity by 45% to 50% (FIG. 2). […] In human kidney 293 cells stably transfected with the cDNA of brain. NOS, stimulated levels of nitrite, an indirect measure of NO production, were not affected by 100 μM benzamide, but were abolished by nitroarginic.

[3] = system: PARS; details: family of benzamide and its derivatives, relative to benzamide; cited from earlier work

## NC(=O)c1ccccc1 [benzamide]
[1]
  inhibition of poly(ADP-ribose) synthesis stimulated by SIN-1- or SNP-treated DNA: inhibited
[2]
  effect on NOS / stimulated nitrite levels: not affected
[2]; listed as Benzamide
  effect on NOS / stimulated nitrite levels: does not inhibit NOS
[2]; A23187 (10 μM), 2 hr, inhibitors 100 μM, n=3
  nitrite formation: 15.9±3.8 μM nitrite
[3]
  relative potency as PARS inhibitor (in words): most active
